The values that follow are results of earlier work, collected in patent publication US20070203244A1, “INHIBITORS OF MEMBRANE TYPE-1 MATRIX METALLOPROTEINASE FOR THE TREATMENT OF INSULIN-DEPENDENT DIABETES MELLITUS” (priority 2006, published 2007).

SMILES strings stand for the structures.

The series has as its target T1, MMP-2 (Homo sapiens, UniProt P08253).
T1 sequence (P08253 110-660): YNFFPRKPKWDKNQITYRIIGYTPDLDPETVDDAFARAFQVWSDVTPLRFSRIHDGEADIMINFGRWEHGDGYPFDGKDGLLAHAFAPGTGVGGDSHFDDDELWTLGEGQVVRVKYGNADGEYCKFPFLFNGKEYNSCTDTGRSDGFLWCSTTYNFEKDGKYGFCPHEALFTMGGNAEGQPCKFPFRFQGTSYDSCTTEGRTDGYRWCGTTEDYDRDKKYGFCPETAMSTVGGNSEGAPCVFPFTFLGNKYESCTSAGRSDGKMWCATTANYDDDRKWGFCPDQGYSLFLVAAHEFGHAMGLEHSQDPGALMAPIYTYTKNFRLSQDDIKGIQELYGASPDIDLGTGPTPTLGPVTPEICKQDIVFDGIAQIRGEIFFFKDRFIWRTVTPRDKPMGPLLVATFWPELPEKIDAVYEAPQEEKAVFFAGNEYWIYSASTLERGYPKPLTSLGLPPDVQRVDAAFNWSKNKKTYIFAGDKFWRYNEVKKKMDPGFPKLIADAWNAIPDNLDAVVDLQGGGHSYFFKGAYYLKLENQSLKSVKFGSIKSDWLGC
Particulars: read-out: EC50 against MMP-2; cited from earlier work.

The EC50 is the concentration that produces a half-maximal response. For the compound `CC(C)[C@H](NS(=O)(=O)c1ccc(-c2ccc(Br)cc2)cc1)C(=O)O` [PD166793, (S)-2-(4′-bromo-biphenyl-4-sulfonylamino)-3-methyl-butyric acid], the EC50 is 47 nM.
